Experimental data taken from PubChem BioAssay AID453 (PCMD, 2006).
The list shows a part of the results, in another mix than the full data. Some tests of the compounds listed are not included; inactive here does not mean inactive elsewhere. Calls of active or inactive are those of the source. No stated cut-off is given here; in the data, active means inhibition above about 21%; inactive means the rest.

What follows are molecules tested against Cathepsin B (Homo sapiens) (UniProt P07858) (assay: human cathepsin B inhibitors, primary screen, biochemical, fluorogenic substrate (AID 453;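 further: 0% = enzyme with no compound and 100% = no enzyme blank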)). Details: purified cathepsin B, fluorescence, hits give high values,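 tested at 10 µM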.
In the case of `O=C(OC1CN2CCC1CC2)C(CO)(c1ccccc1)c1ccccc1` (configuration not stated), the inhibition was inactive: -2.83%. `CN(C)c1cccc(C(=O)NCC2(N(C)C)CCCCC2)c1` was tested, and the inhibition was inactive: 5.91%.
